ChEMBL document CHEMBL3779891, “Protective effects of kaempferol against reactive oxygen species-induced hemolysis and its antiproliferative activity on human cancer cells” (Eur J Med Chem, 2016)

Test system: Hepatocyte
Experiment: Cytotoxicity against hepatocytes (unknown origin) assessed as reduction in cell survival at 25 to 100 ug/ml after 48 hrs by MTT assay
Format: ADME, cell-based

With `O=c1c(O)c(-c2ccc(O)cc2)oc2cc(O)cc(O)c12` [KAEMPFEROL] the Activity was “Toxic”.
